Biological target: T1, Interstitial collagenase (Homo sapiens, UniProt P03956)
T1 sequence (P03956 whole entry): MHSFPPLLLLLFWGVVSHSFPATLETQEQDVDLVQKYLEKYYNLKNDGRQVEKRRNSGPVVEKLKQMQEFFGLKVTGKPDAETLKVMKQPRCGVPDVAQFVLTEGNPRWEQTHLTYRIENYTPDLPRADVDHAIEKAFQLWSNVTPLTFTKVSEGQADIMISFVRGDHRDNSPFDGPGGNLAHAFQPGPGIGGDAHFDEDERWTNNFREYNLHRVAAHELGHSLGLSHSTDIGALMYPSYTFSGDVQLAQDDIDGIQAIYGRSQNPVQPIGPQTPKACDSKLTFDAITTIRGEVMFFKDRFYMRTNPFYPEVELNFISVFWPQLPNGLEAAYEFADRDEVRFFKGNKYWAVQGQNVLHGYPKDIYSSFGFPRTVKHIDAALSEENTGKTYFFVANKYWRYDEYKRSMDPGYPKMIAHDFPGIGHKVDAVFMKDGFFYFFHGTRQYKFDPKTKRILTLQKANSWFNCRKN
Assay: Inhibition of degradation of radiolabeled rat skin type I collagen by semipurified human lung fibroblast collagenase
In short: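 Collagenase from WI-38 human lung fibroblast culture supernatants, trypsin-activated and semipurified. Substrate was 3H- or 14C-acetylated rat skin type I collagen, 100 μg/tube, added at 4 °C. Enzyme amount set to degrade 70% of collagen. Compounds were dissolved in MeOH by sonication and serially diluted. Incubation ran 1000 min at 37 °C, then centrifugation at 4 °C. Supernatant soluble peptides were scintillation counted. IC50 is 50% inhibition; mean ± SEM.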

CNC(=O)[C@H](Cc1ccc(OC)cc1)NC(=O)[C@H](CC(C)C)N[C@@H](C)C(=O)O
IC50: 3.46 µM

— ChEMBL document CHEMBL1127489, “Synthesis of novel N-phosphonoalkyl dipeptide inhibitors of human collagenase” (J Med Chem, 1994)
